In ChEMBL document CHEMBL3286112, “Novel aza-analogous ergoline derived scaffolds as potent serotonin 5-HT₆ and dopamine D₂ receptor ligands” (J Med Chem, 2014) one finds Ki data, which are given here for one compound.

Protein sequences, listed by entry. Tags and fused reporters are not part of them. Lines headed by an entry give the natural chain unless they say otherwise; changes in a name come on top.
UniProt P28335: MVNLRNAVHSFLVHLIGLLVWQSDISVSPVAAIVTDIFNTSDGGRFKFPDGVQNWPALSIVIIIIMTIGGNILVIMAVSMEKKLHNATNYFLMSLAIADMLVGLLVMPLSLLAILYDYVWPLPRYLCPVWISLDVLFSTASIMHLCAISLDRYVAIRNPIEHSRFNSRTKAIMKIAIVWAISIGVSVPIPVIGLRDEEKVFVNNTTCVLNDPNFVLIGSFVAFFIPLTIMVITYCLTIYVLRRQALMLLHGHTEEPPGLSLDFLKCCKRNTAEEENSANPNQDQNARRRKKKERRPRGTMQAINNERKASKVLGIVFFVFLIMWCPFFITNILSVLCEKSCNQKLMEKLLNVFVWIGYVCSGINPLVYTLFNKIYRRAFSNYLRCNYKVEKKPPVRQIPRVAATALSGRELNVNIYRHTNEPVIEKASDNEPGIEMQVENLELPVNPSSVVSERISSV

The assay deals with 5-hydroxytryptamine receptor 2C (Homo sapiens, UniProt P28335). The assay can be described thus: Displacement of [3H]5-HT from human recombinant 5-HT2C receptor expressed in HEK293 cells. In kind it is cell-based. In general terms: Loss of bound radioactivity is the signal in a displacement assay; it reports binding, not function.

SMILES strings stand for the structures.

As usually defined, the Ki is a measure of affinity in units of concentration, obtained from inhibition or displacement. Consider `CN1C[C@@H](NS(=O)(=O)N(C)C)C[C@@H]2c3cccc4c3c(cn4C)C[C@H]21` [MESULERGINE], for which the Ki was 1.82 nM.
